Laboratory results taken from publication PMC10296094, “K-Ras Binds Calmodulin-Related Centrin1 with Potential Implications for K-Ras Driven Cancer Cell Stemness” (Cancers, 2023).

By UniProt entry, the sequences of proteins in these tests, tags left out.
UniProt Q12798, whole entry: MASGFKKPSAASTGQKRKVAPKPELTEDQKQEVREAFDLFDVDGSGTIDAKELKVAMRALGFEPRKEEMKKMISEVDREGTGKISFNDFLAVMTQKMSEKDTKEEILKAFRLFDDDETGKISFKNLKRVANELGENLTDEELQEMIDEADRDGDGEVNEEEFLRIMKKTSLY

Tests used:
CaM = conditions: read-out: CaM Kd (References); F-PMCA peptide as probe; cited from earlier work
centrin1 = centrin1 (Homo sapiens, UniProt Q12798); assay: Fluorescence anisotropy competition: displacement of F-Sfi1 from centrin1 by CaM inhibitors; type: binding; conditions: read-out: Centrin1 Mean Kd (Repeat Values); 100 nM F-Sfi1 and 250 nM His-centrin1, overnight at RT; Kd converted from IC50
Method: The Sfi1 peptide was derived from 670-REVAA-RESQH-NRQLL-RGALR-RWK-692 of human Sfi1 and the fluorescein was attached to the native C-terminal Lys. Sfi1 peptide titration was performed in a buffer composed of 10 mM HEPES pH 7.4, 100 mM CaCl2, and 0.005% v/v Tween 20. For binding, to a 2-fold dilution series of centrin1, 100 nM of Sfi1 peptide was added, and the reaction mix was incubated for 45 min at RT before anisotropy measurements. For measuring the IC50 of inhibitors to centrin1, to the 3-fold dilution series of inhibitors in the assay buffer, a complex of 100 nM fluorescein labelled Sfi1 peptide and 250 nM His-centrin1 was added in 20 µL volume in a 384-well plate. The fluorescence anisotropy was measured after overnight incubation at RT.
The fluorescence anisotropy was measured on a Clariostar (BMG Labtech, Ortenberg, Germany) plate reader using the fluorescence intensity signal recorded from vertical (Iv)- and horizontal (Ih)-polarised light using a fluorescence polarisation module (λexcitation 482 ± 8 nm and λemission 530 ± 20 nm). Fluorescence anisotropy was calculated from the measured fluorescence intensities according to r=Iv−GλIh/Iv+2GλIh, where r is the fluorescence anisotropy value and Iv and Ih are the fluorescence emission intensities detected with vertical and horizontal polarisation, respectively. […]

K-RasG12V/centrin1 = K-RasG12V/centrin1 (Homo sapiens, UniProt Q12798); assay: Cellular BRET Rluc8-K-RasG12V/GFP2-centrin1 in HEK293-ebna cells; type: cell-based

CC(C)c1ccc2cc(C(F)(F)F)c(=O)c3c(N4CCCCC4)c(C=O)c(c1)c23
pKd (CaM): 6.06
pKd (centrin1): 6.05
effect on BRETtop of K-RasG12V/centrin1 (K-RasG12V/centrin1; ophiobolin A 2.5 µM, calmidazolium 10 µM, calmirasone1 20 µM, 24 h, n = 3): lowered
pIC50 (K-RasG12V/centrin1; read-out: IC50, inhibition of K-RasG12V/centrin1 BRET interaction, HEK293-ebna, donor/acceptor plasmid ratio 1/19, 24 h treatment, n = 2): 4.38

pIC50, pKd: −log10 of the molar value.
